ClpP mod: qHTS Assay for Activators of ClpP. ATP-dependent Clp protease proteolytic subunit (Bacillus subtilis (strain 168)), P80244. purified B. subtilis ClpP, FRET peptide cleavage, 20 min. Potency, µM (doses to about 57.5 µM). 340,000 compounds, 1.9% hits; active = well fitted falling curve with a large enough effect; inconclusive = small, poorly fitted or top-dose-only effect; inactive = no such curve, though single readings can be large or run the other way; also: the source files actives as falling curves though it sought activators and does not explain the sign; nearly all actives have a fitted effect of over 65% in size
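FRET quenching reversal measured ClpP activation: 10 microg/mL B. subtilis ClpP at pH 8 with the FRET-FV decapeptide, read at 430 nm after 320 nm excitation. The 20-min minus 0-min signal was scaled between DMSO/no-enzyme wells and ADEP (5.8 microM final).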
Nrf2 ARE act: activators of Nrf2 (ARE) signaling | AREc32 ARE-luciferase reporter (MCF7-derived line), luminescence, 24 h | Potency, µM (titrated, usually from 46.1 µM), hits mostly activators | 410,000 compounds, 0.31% hits; also: nearly all actives have a fitted effect of over 65% in size
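Cells of the AREc32 ARE-luciferase line are plated in OPTI-MEM containing 5% FBS and left overnight at 37 deg C. Compounds are pinned in, incubation continues 24 hr, and firefly luciferase signal is then measured.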
A549 viability: counter-screen for Nrf2 inhibitors: cytotoxicity in A549 cells; A549 ARE-Fluc cells, CellTiter-Fluor viability, 18-24 h; Potency, µM (highest dose often 46 µM), most hits filed as inhibitors; 390,000 compounds, 0.16% hits; AID 504648
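A549 ARE-Fluc cells in 5% FBS OPTI-MEM, 5000 cells/well, rested 2 h then exposed to compounds in concentration-response for 18-24 h at 37 °C. Viability by CellTiter-Fluor fluorescence (Ex 405/Em 525) after 30 min; luciferase luminescence (BugLite, 15 min, RT) read afterwards.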
Nrf2 block: Nrf2 pathway inhibition; Potency, µM (titrated, usually from 46 µM), hits mostly inhibitors; 360,000 compounds, 2.1% hits; AID 504444; A549 ARE-Fluc reporter, luciferase luminescence, 18-24 h; also: nearly all actives have a fitted effect of over 60% in size
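Nrf2 activity is the BugLite luminescence, read 15 min after reagent at room temperature, following CellTiter-Fluor cytotoxicity readout (30 min, 37C). Compound titrations were applied for 18-24 h to 5000 A549 ARE_Fluc cells/well in 5% FBS OPTI-MEM.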
TCR act: T cell receptor activation | primary human leukocytes, anti-CD3, IL-2 HTRF, 48 h | Potency, µM (doses to about 9.22 µM), actives largely listed as activators | 330,000 tested, under 10 active
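1) Mix primary human leukocytes, a-CD3 beads and compound. 2) Incubate 48 hr. 3) Add HTRF IL-2 reagents (a-IL-2-K, a-IL-2-d2).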
miR-21 reporter: miR-21 reporter, rising signal; HeLa miR-21 FLuc reporter, luciferase, 48 h; Potency, µM (doses to about 38.3 µM); 340,000 tested, under 10 active; AID 2288; active = well fitted rising curve with a large enough effect; inconclusive = small, poorly fitted or top-dose-only effect; inactive = no such curve, though single readings can be large or run the other way;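 further: miR-21 action dims this reporter so a rising signal means less miR-21 action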
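Using DMEM plus 10% FBS, HeLa miR-21-FLuc cells are incubated with test compounds (final up to about 40uM) for 48 hours; firefly luciferase signal is then imaged following reagent-mediated lysis.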
A number is an active result; – = inactive; ? = inconclusive; · = no result given. A selection: hits, their analogues and other compounds. The true share with any hit is near 3.7%. Unless noted, calls follow the shape of the dose curve; as a rule, active = well fitted curve in the direction sought with a large enough effect; inconclusive = small, poorly fitted or top-dose-only effect, or another doubt; inactive = no such curve, though single readings can be large; an effect the other way counts as inactive or inconclusive.

SMILES	ClpP mod	Nrf2 ARE act	A549 viability	Nrf2 block	TCR act	miR-21 reporter
N#Cc1nc(-c2ccccc2Cl)oc1N1CCN(C(=O)c2ccco2)CC1	–	–	–	–	–	–
N#Cc1nc(Cc2ccccc2)oc1N1CCN(c2ccccc2)CC1	–	–	–	–	–	–
CN(C)c1oc(-c2ccccc2)nc1C#N	?	–	–	·	–	–
COc1ccccc1-c1nc(C#N)c(N2CCN(Cc3ccccc3)CC2)o1	28.2µM	–	–	–	–	–
CCOCCc1nn2c(=O)cc(COC(=O)CNC(=O)c3ccc(F)cc3)nc2s1	–	–	–	?	·	–
COc1ccc(-c2nc(C#N)c(N3CCOCC3)o2)cc1OC	–	–	–	–	–	–
COc1ccc(-c2nc(C#N)c(N3CCN(c4cccc(Cl)c4)CC3)o2)cc1OC	28.2µM	–	–	–	·	–
N#Cc1nc(-c2ccccc2F)oc1N1CCCCC1	–	–	–	–	–	–
CN(C)c1oc(/C=C/c2ccccc2)nc1C#N	–	7.94µM	?	?	–	–
N#Cc1nc(-c2ccccc2Cl)oc1N1CCCCC1	10µM	–	–	?	–	–
N#Cc1nc(-c2cccc3ccccc23)oc1N1CCCCC1	?	–	–	?	–	–
CC1CCN(c2oc(-c3cccc4ccccc34)nc2C#N)CC1	5.62µM	–	–	?	–	–
O=C(Cc1ccc(Cl)cc1)NCC(=O)N1CCC2(CC1)NCCc1[nH]cnc12	–	–	·	·	·	·
COc1ccc(/C=C/C(=O)Nc2ccc(OC)nc2)cc1	·	–	–	?	–	–
COc1ccc(NC(=O)/C=C/c2ccc(OC(F)F)cc2)cn1	·	–	–	18.4µM	–	–
COc1ccc(NC(=O)/C=C/c2cccc(Br)c2)cn1	·	–	–	16.4µM	–	–
COc1ccc(NC(=O)/C=C/c2cccc(C(F)(F)F)c2)cn1	·	?	–	?	–	–
Cc1cccc(C(=O)NC2CCN(C#N)CC2)c1	·	·	–	–	·	·
O=C(OCn1ncc(Cl)c(Cl)c1=O)c1ccccc1Cl	–	?	·	23.1µM	–	–
Cc1ccc(NC(=O)c2cccc(S(=O)(=O)N3CCN(c4ccc(F)cc4)CC3)c2)nc1	–	–	–	23.1µM	–	–
CN(CC(=O)Nc1ccccc1Cl)C(=O)c1cccc(S(=O)(=O)N2CCN(c3ccc(F)cc3)CC2)c1	–	–	–	5.17µM	–	–
CN(CC(=O)Nc1ccccc1Cl)C(=O)c1cccc(S(=O)(=O)N2CCN(c3ccccc3)CC2)c1	–	–	–	20.6µM	–	·
CN(CC(=O)Nc1cccc(F)c1)C(=O)c1cccc(S(=O)(=O)N2CCN(Cc3ccccc3)CC2)c1	–	–	·	·	·	·
CN(CC(=O)Nc1ccccc1Cl)C(=O)c1cccc(S(=O)(=O)N2CCN(Cc3ccccc3)CC2)c1	–	–	–	14.6µM	–	·
Cc1ccc(NC(=O)c2cccc(S(=O)(=O)N3CCCC3)c2)nc1	·	–	–	?	–	·
SMILES	ClpP mod	Nrf2 ARE act	A549 viability	Nrf2 block	TCR act	miR-21 reporter
Cc1cccc(C)c1NC(=O)CN(C)C(=O)c1cccc(S(=O)(=O)N2CCN(c3ccccc3)CC2)c1	–	–	–	–	–	–
COc1cc(CCC(=O)Nc2c(C(=O)N3CCN(c4ccccc4)CC3)oc3ccccc23)on1	–	–	–	–	–	–
COc1cccc(CN2CC34CCC(CC3S2(=O)=O)O4)c1 (stereo unspecified)	·	·	–	–	·	·
O=C(C[n+]1ccccc1Br)c1ccc2c(c1)CCCC2	–	·	·	·	·	·
Cc1cccc(C)c1NC(=O)CN(C)C(=O)c1cccc(S(=O)(=O)N2CCN(C)CC2)c1	·	–	–	–	–	·
CN(CC(=O)Nc1cccc(F)c1)C(=O)c1cccc(S(=O)(=O)N2CCN(c3ccc(F)cc3)CC2)c1	–	–	?	16.4µM	–	·
CN(Cc1cccc(F)c1)C(=O)c1cccc(S(=O)(=O)N2CCN(Cc3ccccc3)CC2)c1	–	–	–	?	–	–
CN(Cc1cccc(Cl)c1Cl)C(=O)c1cccc(S(=O)(=O)N2CCN(Cc3ccccc3)CC2)c1	–	–	–	13µM	–	–
CCCCN(C(=O)CSc1nnc(-c2ccc(Cl)cc2)o1)c1c(N)n(CC(C)C)c(=O)[nH]c1=O	–	–	?	18.4µM	–	·
O=c1oc2ccc3ccccc3c2c2c1SC(C(F)(F)F)C2 (stereo unspecified)	35.5µM	–	–	?	–	–
Nc1c(-c2ccccc2)n[nH]c1-c1ccccc1	28.2µM	–	–	?	·	–
S=c1nc(-c2ccccc2)c(-c2ccccc2)n[nH]1	–	–	–	–	–	–
CC(=O)Nc1ccc(NC(=O)/C=C/c2ccc3c(c2)OCO3)cc1	·	–	–	–	–	–
CN(C)CCCNC(=O)/C=C/c1ccc2c(c1)OCO2	15.8µM	–	–	–	–	–
COCCNC(=O)C1(C)CCCN(C(=O)c2cc(F)ccc2C)C1 (stereo unspecified)	–	–	·	·	·	·
Cc1[nH]c(=O)nc(NN=Cc2ccc(Cl)cc2)c1C(=O)Nc1ccc(Cl)cc1	–	–	–	–	–	·
Cc1ccn2c(Nc3ccc4c(c3)OCCO4)c(-c3ccc(Cl)s3)nc2c1	25.1µM	–	–	–	·	–
Cc1cc2oc(=O)cc(CN3CCCCCCC3)c2cc1Cl	–	–	·	·	·	·
Cc1ccccc1Nc1nnc(SCc2cc([N+](=O)[O-])cc3c2OCOC3)s1	–	–	–	25.9µM	–	–
Oc1ccccc1C=Nc1ccccc1-c1nc2ccccc2[nH]1	28.2µM	–	–	?	–	–
CN(C)CCN=Cc1c(O)n(Cc2ccccc2)c(=O)c2ccccc12	·	–	–	–	–	–
CN(C)CCCN=Cc1c(O)n(Cc2ccccc2)c(=O)c2ccccc12	25.1µM	–	?	·	–	–
COc1ccc(Cn2c(-c3ccc(C)cc3)c[n+]3ccccc23)cc1	·	–	–	0.731µM	–	?
COc1ccc(-c2nc3ccccc3n2Cc2ccc(C)cc2)cc1	?	–	–	·	–	–
COc1ccc(Cn2c(O)c(C=Nc3ccc(C)cc3)c3ccccc3c2=O)cc1	–	–	?	9.2µM	–	–
COC(=O)c1ccccc1N(Cc1ccccc1)S(C)(=O)=O	25.1µM	–	–	–	–	–
CC(C)NC(=O)c1ccccc1N(Cc1ccccc1)S(C)(=O)=O	–	–	–	–	–	–
O=C(CN1C(=O)c2ccccc2S1(=O)=O)c1ccc(Cl)cc1Cl	–	–	–	11.6µM	·	·
O=C(CN1C(=O)c2ccccc2S1(=O)=O)c1ccc(F)cc1	–	–	–	13µM	–	?
CC(=O)NCCNc1nc2cc(-c3ccccc3CO)sc2c(=O)n1C	–	–	·	·	·	·

Screening results deposited in PubChem BioAssay by National Center for Advancing Translational Sciences (NCATS).
